Data taken from patent US9289388B2, “Methods and compositions for delivery of medicaments to the lungs” (Paka Pulmonary Pharmaceuticals, Inc., priority 2008, dated 2016).

The chains behind the UniProt entries cited, without tags or fusion partners. Residues count along the entry.
UniProt P08246, 30-267 limits assumed: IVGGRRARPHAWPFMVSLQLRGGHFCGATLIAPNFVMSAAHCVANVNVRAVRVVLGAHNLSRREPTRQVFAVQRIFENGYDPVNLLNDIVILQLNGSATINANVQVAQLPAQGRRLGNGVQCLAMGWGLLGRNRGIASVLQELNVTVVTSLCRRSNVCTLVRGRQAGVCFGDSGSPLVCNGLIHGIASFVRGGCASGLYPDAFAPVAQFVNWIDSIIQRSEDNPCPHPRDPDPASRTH

Tests used:
[1] = system: mice with HNE induced emphysema; assay: HNE induced emphysema, intratracheal delivery, lung histology and mean linear intercept after four weeks
Description: A total of 42 animals were used in this study. Anesthesized mice received 0.1 ml of solution delivered by intratracheal instillation as described above in Example 4. Animals were divided into the following treatment groups: four animals received saline only; ten animals received HNE only; four animals received the Zeneca inhibitor (target 2) only; eight animals received HNE mixed with the Zeneca inhibitor (target 2); eight animals received Zeneca inhibitor linked to a lung surfactant peptide (target C) only; and eight animals received HNE mixed with Zeneca inhibitor linked to a lung surfactant peptide (target C). Animals receiving HNE were instilled with 40 micrograms HNE. Target 2 (Zeneca inhibitor) was administered in a 70-fold molar excess relative to HNE and Target C (Zeneca inhibitor linked to a lung surfactant peptide) was administered in a 100 fold molar excess relative to HNE as described in Example 4.
All animals were observed a four week period prior to sacrifice following IRB approved protocols and the lungs from each animal were removed for sectioning. The Hilar and central region was sectioned from the left lung and the caudal region was sectioned from the right lung of each animal. Lung sections were scored using blind-scoring by an expert as “E” for emphysema and “N” for no emphysema.
The distance between adjacent alveolar walls was also measured to quantitate the degree of lung destruction for each treatment group. Lung sections obtained from each animal were analyzed under a microscope (which is connected to a computer) and lines were drawn over the lung sections between adjacent alveolar walls. The distance along the lines was calculated to determine the average distance or mean linear intercept (MLI) between adjacent alveolar walls. An increase in the average distance between adjacent alveolar walls corresponds to an increase in lung destruction.

[2] = system: mice exposed to HNE; assay: Bronchoalveolar lavage of the lungs following HNE exposure (lung blood cell level)
Description: A total of 14 animals were used in this study. Anesthetized mice received 0.1 ml of solution delivered by a blunt tip catheter to the opening of the trachea and the animals allowed to aspirate the solution into their lungs (this method is also referred to as intratracheal instillation). All animals were exposed to the treatment for 2 hours and re-anesthetized. Bronchoalveolar lavage of the lungs was performed as described below. […] Target 2 (a potent HNE inhibitor developed by Zeneca in the early 1990s) when given with the HNE, reduced the average blood level in the lungs by 34% to 0.035 grams. Target C (the Zeneca molecule covalently attached to the N-terminus of the first 25 residues of the human surfactant B peptide) when given with the HNE reduced the average blood level in the lungs by 87% to 0.007 grams.
A set of animals was used to determine the optimal concentration of HNE for the study. […] The amount of HNE was reduced to 40 micrograms to maintain a maximal detrimental but survivable effect. The animals exposed to 40 micrograms of HNE were able to survive long enough to perform the complete study. All animals remaining in the complete study were exposed to 40 micrograms of HNE.
(§1) Target 2 (the Zeneca molecule) was given in a 70-fold molar excess relative to HNE. In the kinetic studies, Target 2 has 2 nM affinity. Target C (the Zeneca molecule covalently attached to the first 25 residues of the human surfactant peptide B) loses approximately two orders of magnitude of potency as compared to Target 2 in the kinetic studies and thus Target C has approximately 200 nM affinity for HNE. Accordingly, the Target C was given to the animals in a 100 fold molar excess relative to HNE in these studies.
Bronchio-Alveolar lavage (BAL) is performed by 1) anesthetizing the animals; 2) performing a tracheotomy on the animals and cutting open the chest and spreading the ribs to enable full lung expansion; 3) pressurizing 1 ml of PBS buffer solution into the lungs through the tracheotomy catheter; 4) sucking the solution out of the lungs; 5) centrifuging the recovered solution to separate the red blood cell fraction from the liquid fraction; and 6) weighing the red blood cell fraction.

[3] = target: HNE (Homo sapiens, UniProt P08246); assay: kinetic studies of HNE inhibition; conditions: read-out: affinity for HNE
Description: as §1

[4] = given with 40 micrograms HNE by intratracheal instillation, 2 hours, weight of BAL red blood cell fraction

CC(C)[C@H](NC(=O)CC(=O)O)C(=O)N1CCCC1C(=O)N[C@H](C(=O)C(F)(F)C(=O)NCc1ccccc1)C(C)C (some centres unmarked)
MLI (mean linear intercept between adjacent alveolar walls) ([1]; HNE (40 micrograms) mixed with compound, intratracheal, four weeks, saline only 44.40, HNE only 51.45): 53.27 μm | effect on HNE induced emphysema by MLI ([1]; HNE + compound, compared to HNE only and saline only): no effect on HNE induced emphysema | effect on HNE induced emphysema, lung histology sections ([1]; HNE mixed with compound, four weeks, blind scoring): no effect on HNE induced emphysema | Lung Blood Cell Level, Group mean [2, 4]: 0.035 g | Lung Blood Cell Level, Mouse Group 4 [2, 4]: 0.039 g | Lung Blood Cell Level, Mouse group 1 [2, 4]: 0.03 g | Lung Blood Cell Level, Mouse group 2 [2, 4]: 0.041 g | Lung Blood Cell Level, Mouse group 3 [2, 4]: 0.03 g | average blood level in the lungs ([2]; given with the HNE, 2 hours, HNE alone 0.053 grams): 0.035 grams | reduction of the average blood level in the lungs ([2]; given with the HNE, versus HNE alone): 34% | Ki [3]: 2 nM
